Test [1] relates to Ba/F3 cells expressing FLT3-ITD-D835V.
A further test has as its target FLT3-ITD-D835V (Homo sapiens (Human), UniProt P36888, D835V/INS600HVDFREYEYD). Nature of the test: pFLT3 MSD assay, Ba/F3 FLT3-ITD-D835V. It counts as cell-based. Conditions: Ba/F3 FLT3-ITD-D835V cells, 2 hours, read-out: BaF3-FLT3-ITD-D835V pFlt3 IC50.
The next test addresses FLT3-ITD-F691L (Homo sapiens (Human), UniProt P36888, F691L/INS600HVDFREYEYD). Briefly: pFLT3 MSD assay, Ba/F3 FLT3-ITD-F691L. It is filed as cell-based. To be noted: Ba/F3 FLT3-ITD-F691L cells, 2 hours, read-out: BaF3-FLT3-ITD-F691L pFlt3 IC50.
Test [2] deals with Ba/F3 cells expressing FLT3-ITD.

`O=C(Cc1ccc(-c2cnc3[nH]nc(OCC(F)F)c3c2)cc1F)Nc1cc(C2(C(F)(F)F)CC2)on1` [Example 102, 2-[4-[3-(2,2-difluoroethoxy)-1H-pyrazolo[3,4-b]pyridin-5-yl]-2-fluoro-phenyl]-N-[5-[1-(trifluoro-methyl)cyclopropyl]isoxazol-3-yl]acetamide]: the IC50 (in test [1]; at FLT3-ITD-D835V; at FLT3-ITD-F691L; in test [2]) was < 10 nM in each case.
Regarding `CC(C)(C)c1cc(NC(=O)Cc2ccc(-c3cnc4[nH]nc(-n5ccnn5)c4c3)cc2)no1` [Example 103, N-(5-tert-butylisoxazol-3-yl)-2-[4-[3-(triazol-1-yl)-1H-pyrazolo[3,4-b]pyridin-5-yl]phenyl]acetamide], the half-inhibitory concentration (IC50) (in test [1]; at FLT3-ITD-D835V; at FLT3-ITD-F691L; in test [2]) was < 10 nM throughout.
On to `O=C(Cc1ccc(-c2cnc3[nH]nc(OCCF)c3c2)cc1F)Nc1cc(C2(C(F)(F)F)CC2)on1` [Example 104, 2-[2-fluoro-4-[3-(2-fluoroethoxy)-1H-pyrazolo[3,4-b]pyridin-5-yl]phenyl]-N-[5-[1-(trifluoro-methyl)cyclopropyl]isoxazol-3-yl]acetamide], for which the IC50 (in test [1]; on FLT3-ITD-D835V; at FLT3-ITD-F691L; in test [2]) was < 10 nM each time.
On to `COCCOc1cc2ncc(-c3ccc(CC(=O)Nc4cc(C5(C(F)(F)F)CC5)on4)c(F)c3)nc2cc1OCCOC` [Example 125, 2-[4-[6,7-bis(2-methoxyethoxy)quinoxalin-2-yl]-2-fluoro-phenyl]-N-[5-[1-(trifluoro-methyl)cyclopropyl]isoxazol-3-yl]acetamide], for which the IC50 (in test [1]; at FLT3-ITD-D835V; at FLT3-ITD-F691L; in test [2]) was < 10 nM in each case.
For `COCCOc1cc2ncc(-c3ccc(CC(=O)Nc4cc(C5(C(F)(F)F)CC5)on4)c(F)c3)cc2cc1OC` [Example 126, 2-[2-fluoro-4-[6-methoxy-7-(2-methoxyethoxy)-3-quinolyl]phenyl]-N-[5-[1-(trifluoromethyl)cyclo-propyl]isoxazol-3-yl]acetamide], the IC50 (in test [1]; at FLT3-ITD-D835V; on FLT3-ITD-F691L; in test [2]) was < 10 nM throughout.
With `COc1cc2cc(-c3ccc(CC(=O)Nc4cc(C5(C(F)(F)F)CC5)on4)c(F)c3)cnc2cc1OCCOC(C)=O` [Example 127, 2-[[3-[3-fluoro-4-[2-oxo-2-[[5-[1-(trifluoro-methyl)cyclopropyl]isoxazol-3-yl]amino]ethyl]phenyl]-6-methoxy-7-quinolyl]oxy]ethyl acetate], the 50% inhibitory concentration (IC50) (in test [1]; at FLT3-ITD-D835V; at FLT3-ITD-F691L; in test [2]) was < 10 nM throughout.
Consider `COc1cc2cc(-c3ccc(CC(=O)Nc4cc(C5(C(F)(F)F)CC5)on4)c(F)c3)cnc2cc1OC` [Example 128, 2-[4-(6,7-dimethoxy-3-quinolyl)-2-fluoro-phenyl]-N-[5-[1-(trifluoro-methyl)cyclopropyl]isoxazol-3-yl]acetamide], for which the IC50 (in test [1]; on FLT3-ITD-D835V; at FLT3-ITD-F691L; in test [2]) was < 10 nM each time.
With `COc1cc2cc(-c3ccc(CC(=O)Nc4cc(C(C)(C)C(F)(F)F)on4)c(F)c3)cnc2cc1OC` [Example 129, 2-[4-(6,7-dimethoxy-3-quinolyl)-2-fluoro-phenyl]-N-[5-(2,2,2-trifluoro-1,1-dimethyl-ethyl)isoxazol-3-yl]acetamide], the IC50 (in test [1]; on FLT3-ITD-D835V; on FLT3-ITD-F691L; in test [2]) was < 10 nM in each case.
On to `COc1cc2nc(-c3ccc(CC(=O)Nc4cc(C5(C(F)(F)F)CC5)on4)c(F)c3)cnc2cc1OCCOC(C)=O` [Example 130, 2-[2-[3-fluoro-4-[2-oxo-2-[[5-[1-(trifluoromethyl)cyclo-propyl]isoxazol-3-yl]amino]ethyl]phenyl]-7-methoxy-quinoxalin-6-yl]oxyethyl acetate], for which the IC50 (in test [1]; at FLT3-ITD-D835V; on FLT3-ITD-F691L; in test [2]) was < 10 nM in each case.
Consider `COc1cc2nc(-c3ccc(CC(=O)Nc4cc(C5(C(F)(F)F)CC5)on4)c(F)c3)cnc2cc1OCCO` [Example 131, 2-[2-fluoro-4-[6-(2-hydroxyethoxy)-7-methoxy-quinoxalin-2-yl]phenyl]-N-[5-[1-(trifluoromethyl)cyclo-propyl]isoxazol-3-yl]acetamide], for which the half-maximal inhibitory concentration (IC50) (in test [1]; at FLT3-ITD-D835V; on FLT3-ITD-F691L; in test [2]) was < 10 nM in each case.
For `COc1cc2nc(-c3ccc(CC(=O)Nc4cc(C5(C(F)(F)F)CC5)on4)c(F)c3)cnc2cc1OCCN1CCCC1` [Example 134, 2-[2-fluoro-4-[7-methoxy-6-(2-pyrrolidin-1-ylethoxy)quinoxalin-2-yl]phenyl]-N-[5-[1-(trifluoromethyl)cyclo-propyl]isoxazol-3-yl]acetamide], the IC50 (in test [1]; on FLT3-ITD-D835V; on FLT3-ITD-F691L; in test [2]) was < 10 nM throughout.
Take `CCN1CC(Oc2cc3ncc(-c4ccc(CC(=O)Nc5cc(C6(C(F)(F)F)CC6)on5)c(F)c4)nc3cc2OC)C1` [Example 142, 2-[4-[6-(1-ethylazetidin-3-yl)oxy-7-methoxy-quinoxalin-2-yl]-2-fluoro-phenyl]-N-[5-[1-(trifluoro-methyl)cyclopropyl]isoxazol-3-yl]acetamide]: the IC50 in test [1] was < 10 nM; at FLT3-ITD-D835V, 10 to 20 nM; on FLT3-ITD-F691L, 10 to 20 nM; in test [2] it was < 10 nM.
With `COc1cc2nc(-c3ccc(CC(=O)Nc4cc(C(C)(C)C(F)(F)F)on4)c(F)c3)cnc2cc1OC1CNC1` [Example 148, 2-[4-[6-(azetidin-3-yloxy)-7-methoxy-quinoxalin-2-yl]-2-fluoro-phenyl]-N-[5-(2,2,2-trifluoro-1,1-dimethyl-ethyl)isoxazol-3-yl]acetamide], the half-inhibitory concentration (IC50) in test [1] is < 10 nM; on FLT3-ITD-D835V, 20 to 50 nM; at FLT3-ITD-F691L it was 10 to 20 nM; in test [2] it was < 10 nM.
Regarding `CCN1CC(Oc2cc3ncc(-c4ccc(CC(=O)Nc5cc(C(C)(C)C(F)(F)F)on5)c(F)c4)nc3cc2OC)C1` [Example 149, 2-[4-[6-(1-ethylazetidin-3-yl)oxy-7-methoxy-quinoxalin-2-yl]-2-fluoro-phenyl]-N-[5-(2,2,2-trifluoro-1,1-dimethyl-ethyl)isoxazol-3-yl]acetamide], the IC50 in test [1] was < 10 nM; on FLT3-ITD-D835V it was 10 to 20 nM; at FLT3-ITD-F691L, 20 to 50 nM; in test [2], < 10 nM.
Consider `COc1cc2nc(-c3ccc(CC(=O)Nc4cc(C(C)(C)C(F)(F)F)on4)c(F)c3)cnc2cc1OC1CN(C)C1` [Example 150, 2-[2-fluoro-4-[7-methoxy-6-(1-methylazetidin-3-yl)oxy-quinoxalin-2-yl]phenyl]-N-[5-(2,2,2-trifluoro-1,1-dimethyl-ethyl)isoxazol-3-yl]acetamide], for which the 50% inhibitory concentration (IC50) is < 10 nM in test [1], < 10 nM at FLT3-ITD-D835V, 10 to 20 nM on FLT3-ITD-F691L and < 10 nM in test [2].
Regarding `COc1cc2ncc(-c3ccc(CC(=O)Nc4cc(C5(C(F)(F)F)CC5)on4)c(F)c3)nc2cc1O` [Example 157, 2-[2-fluoro-4-(7-hydroxy-6-methoxy-quinoxalin-2-yl)phenyl]-N-[5-[1-(trifluoro-methyl)cyclopropyl]isoxazol-3-yl]acetamide], the concentration for half-maximal inhibition (IC50) (in test [1]; on FLT3-ITD-D835V; at FLT3-ITD-F691L; in test [2]) was < 10 nM in each case.
As for `COc1cc2ncc(-c3ccc(CC(=O)Nc4cc(C5(C(F)(F)F)CC5)on4)c(F)c3)nc2cc1OCCN(C)C` [Example 158, 2-[4-[7-[2-(dimethylamino)ethoxy]-6-methoxy-quinoxalin-2-yl]-2-fluoro-phenyl]-N-[5-[1-(trifluoromethyl)cyclo-propyl]isoxazol-3-yl]acetamide], the 50% inhibitory concentration (IC50) (in test [1]; on FLT3-ITD-D835V; on FLT3-ITD-F691L; in test [2]) was < 10 nM each time.
Consider `COc1cc2nc(-c3ccc(CC(=O)Nc4cc(C(C)(C)C(F)(F)F)on4)c(F)c3)cnc2cc1OCCO` [Example 165, 2-[2-fluoro-4-[6-(2-hydroxyethoxy)-7-methoxy-quinoxalin-2-yl]phenyl]-N-[5-(2,2,2-trifluoro-1,1-dimethyl-ethyl)isoxazol-3-yl]acetamide], for which the half-inhibitory concentration (IC50) (in test [1]; at FLT3-ITD-D835V; at FLT3-ITD-F691L; in test [2]) was < 10 nM throughout.
`COc1cc2nc(-c3ccc(CC(=O)Nc4cc(C5(C(F)(F)F)CC5)on4)c(F)c3)cnc2cc1OCCN` [Example 167, 2-[4-[6-(2-aminoethoxy)-7-methoxy-quinoxalin-2-yl]-2-fluoro-phenyl]-N-[5-[1-(trifluoromethyl)cyclo-propyl]isoxazol-3-yl]acetamide]: the IC50 (in test [1]; on FLT3-ITD-D835V; on FLT3-ITD-F691L; in test [2]) was < 10 nM in each case.
Take `COc1cc2ncc(-c3ccc(CC(=O)Nc4cc(C(C)(C)C(F)(F)F)on4)c(F)c3)nc2cc1OCCO` [Example 170, 2-[2-fluoro-4-[7-(2-hydroxyethoxy)-6-methoxy-quinoxalin-2-yl]phenyl]-N-[5-(2,2,2-trifluoro-1,1-dimethyl-ethyl)isoxazol-3-yl]acetamide]: the half-maximal inhibitory concentration (IC50) (in test [1]; on FLT3-ITD-D835V; on FLT3-ITD-F691L; in test [2]) was < 10 nM each time.
Turning to `COCCOc1cc2nc(-c3ccc(CC(=O)Nc4cc(C5(C(F)(F)F)CC5)on4)c(F)c3)cnc2cc1OC` [compound 77], the half-inhibitory concentration (IC50) (in test [1]; on FLT3-ITD-D835V; at FLT3-ITD-F691L; in test [2]) was < 10 nM each time.

Source of the values: US9725465B2, “Biaryl acetamide compounds and methods of use thereof” (Ambit Biosciences Corporation, priority 2013, dated 2017).
